# Molecular target: Sodium-dependent serotonin transporter (Rattus norvegicus, UniProt P31652)
# Amino acid sequences for entries named in this document (tags omitted).
# UniProt P31652, whole entry: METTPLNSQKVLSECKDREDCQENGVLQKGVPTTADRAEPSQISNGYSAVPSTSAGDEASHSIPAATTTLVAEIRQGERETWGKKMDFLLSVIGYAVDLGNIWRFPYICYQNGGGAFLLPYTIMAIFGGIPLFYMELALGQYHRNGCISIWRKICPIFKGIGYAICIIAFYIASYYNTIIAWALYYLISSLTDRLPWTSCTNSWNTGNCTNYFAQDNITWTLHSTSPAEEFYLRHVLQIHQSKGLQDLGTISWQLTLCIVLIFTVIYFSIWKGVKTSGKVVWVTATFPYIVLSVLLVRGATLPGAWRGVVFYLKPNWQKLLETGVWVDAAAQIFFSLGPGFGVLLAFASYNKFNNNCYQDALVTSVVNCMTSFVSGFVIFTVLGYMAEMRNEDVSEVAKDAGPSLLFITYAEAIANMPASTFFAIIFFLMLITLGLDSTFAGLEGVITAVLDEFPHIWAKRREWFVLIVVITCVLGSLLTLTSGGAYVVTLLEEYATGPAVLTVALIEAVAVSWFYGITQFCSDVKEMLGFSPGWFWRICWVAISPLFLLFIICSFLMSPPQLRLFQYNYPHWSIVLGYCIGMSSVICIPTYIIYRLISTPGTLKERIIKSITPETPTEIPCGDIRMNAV
# Test: Binding affinity at rat SERT
compound,measurement,value
CC(C)N1CCN(C(=O)c2ccc(C(CCN(C)C)Oc3ccc(C(F)(F)F)cc3)cc2)CC1 (stereo unspecified),Ki,44 nM

# Reference: ChEMBL document CHEMBL1139920, “Synthesis and biological evaluation of diamine-based histamine H3 antagonists with serotonin reuptake inhibitor activity” (Bioorg Med Chem Lett, 2007)
